The values that follow come from patent US10966968B2, “Co-administration of rosiglitazone and eicosapentaenoic acid or a derivative thereof” (Amarin Pharmaceuticals Ireland Limited, priority 2013, dated 2021).

The data set is described as follows: Phase 1 open-label crossover drug-drug interaction study: rosiglitazone plasma pharmacokinetics without and with ethyl eicosapentaenoate. Particulars: (Rosiglitazone + EPA)/(Rosiglitazone alone).

With `CN(CCOc1ccc(CC2SC(=O)NC2=O)cc1)c1ccccn1` (centres unmarked) [Rosiglitazone, rosiglitazone], the “LSGM Ratio AUC0-inf” value was determined as 0.90 and the “LSGM Ratio Cmax” value came out at 1.01.
